# Data taken from publication PMC10793458 (bioRxiv, 2023).
# Protein sequences, listed by entry. Tags and fused reporters are not part of them.
# UniProt Q86UE8, whole entry: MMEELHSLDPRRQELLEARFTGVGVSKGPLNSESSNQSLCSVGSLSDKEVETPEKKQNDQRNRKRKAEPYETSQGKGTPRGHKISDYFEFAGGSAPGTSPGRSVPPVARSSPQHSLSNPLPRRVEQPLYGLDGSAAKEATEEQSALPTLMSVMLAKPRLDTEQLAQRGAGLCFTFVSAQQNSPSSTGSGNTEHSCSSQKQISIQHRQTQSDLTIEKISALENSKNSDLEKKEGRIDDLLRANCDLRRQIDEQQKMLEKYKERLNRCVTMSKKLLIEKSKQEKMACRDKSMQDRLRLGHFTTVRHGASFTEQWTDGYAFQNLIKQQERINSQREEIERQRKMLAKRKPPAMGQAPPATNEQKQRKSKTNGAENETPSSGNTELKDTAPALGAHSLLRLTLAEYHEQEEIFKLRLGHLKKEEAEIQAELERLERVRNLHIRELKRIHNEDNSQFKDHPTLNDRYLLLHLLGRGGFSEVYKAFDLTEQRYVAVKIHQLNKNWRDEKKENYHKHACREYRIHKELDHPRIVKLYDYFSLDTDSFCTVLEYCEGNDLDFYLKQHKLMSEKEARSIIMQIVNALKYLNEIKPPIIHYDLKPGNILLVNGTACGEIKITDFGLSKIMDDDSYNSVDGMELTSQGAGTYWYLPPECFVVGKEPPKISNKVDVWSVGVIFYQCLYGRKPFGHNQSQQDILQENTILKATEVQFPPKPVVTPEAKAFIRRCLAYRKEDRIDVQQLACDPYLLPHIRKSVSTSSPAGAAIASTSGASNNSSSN
# Biological target: TLK2 (Homo sapiens, UniProt Q86UE8)
SMILES,fold decrease in TLK2 inhibition (relative to 27),fold less potent on TLK2 (relative to 73) [fold]
"O=C1Nc2ccc(C(=O)c3ccc(F)cc3)cc2/C1=C/c1ccc[nH]1 [Compound 45, (3Z)-5-[(4-fluorophenyl)carbonyl]-3-(1H-pyrrol-2-ylmethylidene)-2,3-dihydro-1H-indol-2-one]",2–3 fold,–
"O=C1Nc2ccc(NC(=O)c3ccccc3)cc2/C1=C/c1ncc[nH]1 [Compound 74, N-[(3Z)-3-(1H-imidazol-2-ylmethylidene)-2-oxo-2,3-dihydro-1H-indol-5-yl]benzamide]",–,3
